Data as given in paper PMC6615598, “Novel antibiotics effective against gram-positive and -negative multi-resistant bacteria with limited resistance” (PLoS Biology, 2019).

How the values were obtained:
[1] = Stability in human serum (half-life); format: in vitro ADME; conditions: 25% human serum, pre-incubated 15 min at 37°C, peptide 10^−4 M, RP-HPLC peak areas, mean of biological triplicates
Experimental: (§1) (10−4 M final concentrations). At selected time intervals, 100 μl of reaction mixture was collected, quenched by 200 μl 95% EtOH, and adjusted at pH 2 to prevent peptide adsorption to serum proteins. […] Supernatants were analyzed by RP-HPLC on an Xbridge C18 column with a linear gradient of water, 0.08% TFA, and acetonitrile with 1% TFA. HPLC peak areas were used to calculate the percentages of intact compound remaining at the various time points. MIC and MBC values were determined in triplicate in many ESKAPE clinical isolates, including a dozen MDR S. aureus, by the broth microdilution method. Peptidomimetics and antibiotics were assayed in a concentration range of 1 to 128 μM. The bacterial inoculum (5 × 10^5 colony-forming units [CFUs]/well) was prepared in MHB or CAMHB (150 μl). A Biotek Synergy 2 spectrophotometer was used to record the results after 18–20 h incubation at 35°C (±2°C). […] After every hour of culture for 4 h, serial dilutions were plated on BHI plates and incubated overnight at 37°C, and then the CFUs were counted and expressed as log CFU/ml. Phosphate-buffered saline (PBS)-exposed S. aureus MRSA was included as a control.
(§2) Supplementary file pbio.3000337.s013.docx: S7 Table Peptide half-lives in human and mouse sera. […] Peptide amounts and half-lives were determined by HPLC. Experiments were conducted on 25% human or mouse sera. Values are shown in minutes. […]

[2] = Stability in mouse serum (half-life); format: in vitro ADME; conditions: 25% mouse serum, pre-incubated 15 min at 37°C, peptide 10^−4 M, RP-HPLC peak areas, mean of biological triplicates
Experimental: as §1, §2

zebrafish embryos [3] = assay: Zebrafish embryo quantitative toxicity (size, curvature, cardiac frequency)
Experimental: Adult fish were kept in 30l aquariums at 27°C ± 2°C under constant light/dark (14:10 h) cycles. The day before the embryos were used, males and females were placed in breeding tanks. The fish were left undisturbed overnight, and the eggs were collected 1 h after the light was turned on the next morning. When the injections of the cyclic peptides started, embryos were transferred into microtiter plates placed at 28°C for 24 h. Peptides were prepared at 1, 10, 20, 40, and 100 mM concentrations in water, and injections were performed into the caudal vein. Each peptide was injected at 1 nl for all concentrations except 100 mM, when 2 nl was injected. Control embryos were injected with 1 nl of water. When the peptides were injected, analysis determined embryo sizes, curvatures, and cardiac frequencies. Peptide concentrations were checked in 10 embryos, and these were divided among 96-well plates and analyzed under a microscope or using a magnifying glass. Analysis was done for 9 qualitative endpoints in order to determine mortality rates and the frequencies of toxic effects, which include cardiac bleeding, blood flow defects, cerebellar bleeding, necrosis, pericardia edema, otic vesicle, and motility and brain defects. […] To do this, each peptide was prepared in 0.9% NaCl and injected into the tail veins of 3 male Swiss mice at 1.5, 2.0, 2.5, or 5.0 mg.kg^−1, corresponding, respectively, to calculated blood concentrations of approximately 18.5, 24.5, 31, and 62.0 μM. Each animal was checked for mortality twice per day. Clinical signs were recorded daily, including any reduced motor activity, piloerection, and redness in the ear lobe, cyanosis, protruding eyeballs, slow or labored breathing, loss of response in the rear legs, convulsions, or death. Body weight was recorded at least once before the beginning of the treatment period and again on the day of treatment, with the satellite group checked once during the observation period. For the groups of mice observed for 7 d, food consumption was measured once during the study. All the animals were euthanized on the day after treatment, except for 4 satellite animal groups that were euthanized after a 7 d observation period. All then underwent complete macroscopic and microscopic post-mortem examinations. Hematology investigations were performed before necropsy for all animals except the satellite ones, whose blood biochemistry parameters were determined before euthanasia. For all injected doses, measurements were done 2 d before necropsy of various hematology parameters. These included white blood cells counts, erythrocytes counts, hemoglobin concentration, hematocrit, mean corpuscular volume, mean corpuscular hemoglobin, mean cell volume, packed cell volume, mean cell hemoglobin concentration, mean cell hemoglobin, thrombocytes, leucocytes, reticulocytes, neutrophils, eosinophils, basophils, lymphocytes, large unstained cells, monocytes, prothrombin time, fibrinogen, activated partial thromboplastin time, potassium, and creatinine. After euthanasia, selected organs were weighed, and selected tissue was preserved for microscopic examination. The human erythrocyte toxicity assays were performed as described by Solecki and colleagues. Human blood was collected from the Rennes Etablissement Français du Sang. Red blood cells (RBCs) were centrifuged at room temperature to 1,400 rpm for 10 min. Supernatant was discarded and RBCs recovered into 1X PBS buffer. RBCs were centrifuged again, and the pellets resuspended in 1X PBS. RBCs were washed until the supernatant was clear. Of that suspension, 75 μl was mixed with 75 μl of 2-fold serial dilutions of purified peptide in a microtiter plate, from 0.5 to 512 μM in 1X PBS. The plates were incubated for 2 h at 37°C. […] A solution of water 1% Triton X-100 was a positive control with all RBCs lysed, and the hemoglobin release was set at 100%.

zebrafish embryos [4] = assay: Zebrafish embryo qualitative toxicity (mortality, toxic defects); format: in vivo; conditions: injection of 1 or 10 mM; 9 qualitative endpoints
Experimental: Control embryos were injected with 1 nl of water. […] Each animal was checked for mortality twice per day. […] RBCs were washed until the supernatant was clear. […] RBCs in PBS were a negative control without hemolysis.
Supplementary file pbio.3000337.s009.docx: S3 Table Qualitative toxicity assays of the 4 peptides on zebrafish embryos. Within a concentration range of 1 to 100 mM, 9 endpoints were analyzed to determine mortality rates and the frequency of various toxic effects (cardiac hemorrhage, blood flow defects, cerebellar hemorrhage, necrosis, pericardia edema, otic vesicle defects, motility defects, and brain defects). No toxicity was observed after injection of each of the 4 peptides and pseudopeptides at 1 or 10 mM concentrations, nor for those injected with Nisin or just water. However, 100% mortality was observed after injection of 100 mM of any of the peptides or pseudopeptides. CP, cumulative percentage of toxic defects; F, frequency; N, number of treated embryos; P, percentage. (DOCX) Click here for additional data file.

[5] = 1 nl of 10 mM injected into caudal vein

Molecule	Half-life in human serum [1] [min]	Half-life in mouse serum [2] [min]	Cardiac frequency, Mean (zebrafish embryos [3]; 1 nl of 1 mM injected) [heart beat/10 sec]	Embryo curvature, Mean (zebrafish embryos [3]; 1 nl of 1 mM injected) [°]	Embryo size, Mean (zebrafish embryos [3]; 1 nl of 1 mM injected into caudal vein)	Cardiac frequency, Mean (zebrafish embryos [3]; 1 nl of 10 mM injected) [heart beat/10 sec]	Embryo curvature, Mean (zebrafish embryos [3]; 1 nl of 10 mM injected) [°]	Embryo size, Mean (zebrafish embryos [3]; [5])	Cardiac frequency, Mean (zebrafish embryos [3]; 1 nl of 20 mM injected) [heart beat/10 sec]	Embryo curvature, Mean (zebrafish embryos [3]; 1 nl of 20 mM injected) [°]	Embryo size, Mean (zebrafish embryos [3]; 1 nl of 20 mM injected into caudal vein)	Cardiac frequency, Mean (zebrafish embryos [3]; 1 nl of 40 mM injected) [heart beat/10 sec]	Embryo curvature, Mean (zebrafish embryos [3]; 1 nl of 40 mM injected) [°]	Embryo size, Mean (zebrafish embryos [3]; 1 nl of 40 mM injected into caudal vein)	Toxicity in zebrafish embryos (zebrafish embryos [4])
nisin	22 ± 5	7 ± 2	29	179	2154	30	179	2102	30	179	2099	30	179	2201	No toxicity
CC(C)[C@@H]1NC(=O)[C@H](CCCNC(=N)N)NC(=O)[C@H](CCCNC(=N)N)NC(=O)[C@H](Cc2c[nH]c3ccccc23)NC(=O)[C@H](Cc2ccccc2)NC(=O)[C@H](Cc2ccccc2)NC(=O)[C@H](CCCCN)NC1=O [Pep18]				179			179	2154		179					
